# In patent US11002728B2, “Method for evaluating activity of G protein-coupled receptor (GPCR)” (RIKEN, priority 2017, dated 2021):
# Target: HaloTag-fused mGluR3 (UniProt P0A3G2+Q9QYS2, A155T/A167V/A172T/A224E/C128F/C176G/D78G/E160K/E257K/H272N/K175M/K195N/L47V/L88M/N227D/S58T/T264A/Y273L/Y87F)
# Experiment: Saturation binding experiment of HaloTag TMR ligand
# Set-up: species or system mouse
# Experimental: HaloTag-fused or non-fused mGluR3 pDNA (1 μg/60-mm dish) was transfected into HEK293 cells grown to a confluence of about 70% by the lipofection method described above. […] After TMR staining, the 60-mm dish was washed with 3 mL of HBSS three times. The cells were suspended in buffer C (500 μL, 10 mM HEPES (pH 7.5), 140 mM NaCl, 4 mM KOH, 1 mM MgCl2, and 1.5 mM CaCl2) and were collected in a 1.5-mL tube. After centrifugation, the cellular precipitate was solubilized with 200 μL of buffer C containing 1% Triton X. After centrifugation again, the supernatant was collected, and the concentration of TMR bound to the solubilized receptor was quantified with a fluorescence spectrophotometer (RF-5300PC, Shimadzu). The sample was excited at 540 nm. The scattered light of the excitation light was removed with an 057 cut-off filter, and the fluorescence spectrum was then measured. As a standard sample, the TMR ligand in a known concentration was used (FIG. 2(a, b)). The non-specific binding was estimated by using a membrane fraction expressing mGluR3 not fused with HaloTag (FIG. 2(c)). The specific binding to HaloTag-fused mGluR3 was calculated by subtracting non-specific binding from the total binding amount to the cells expressing HaloTag-fused mGluR3. The specific binding and the non-specific binding were fitted using the following Hill equation (n: Hill coefficient).
structure (smiles),measurement,setting,value
CN(C)c1ccc2c(-c3cc(C(=O)NCCOCCOCCCCCCCl)ccc3C(=O)[O-])c3ccc(=[N+](C)C)cc-3oc2c1,mGluR3 labeled,"300 nM TMR ligand, estimated from the regression curve",about 95%
same,EC50,"read-out: EC50 of specific binding to HaloTag-fused mGluR3 (regression curve), HEK293 cells, 30 minutes, FIG. 2(c)",63 nM
same,Hill coefficient,"regression curve, FIG. 2(c)",1.9
